{"sequences": {"note": "Chains of the proteins cited; added tags and fusions are not shown. Residues count along the entry.", "UniProt G1TEI7, 1-342": "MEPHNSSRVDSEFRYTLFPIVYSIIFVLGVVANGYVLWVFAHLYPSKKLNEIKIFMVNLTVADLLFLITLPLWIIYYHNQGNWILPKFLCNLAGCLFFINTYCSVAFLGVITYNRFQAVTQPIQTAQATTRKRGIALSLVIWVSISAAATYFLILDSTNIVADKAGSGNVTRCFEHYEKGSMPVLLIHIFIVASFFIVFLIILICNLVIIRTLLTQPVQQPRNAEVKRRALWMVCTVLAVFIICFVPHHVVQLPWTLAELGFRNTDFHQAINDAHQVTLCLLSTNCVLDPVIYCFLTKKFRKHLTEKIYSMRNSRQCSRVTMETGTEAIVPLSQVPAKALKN"}, "source": "patent US5610310A", "about": "“Cyclic lipid derivatives as potent PAF antagonists” (Pohang Iron & Steel Co., Ltd, priority 1995, dated 1997)", "molecular_target": "PAF receptor (rabbit platelet membranes) (Oryctolagus cuniculus, UniProt G1TEI7)", "assay": "PAF Receptor Binding Assay", "conditions": "read-out: Kd of [^3 H]PAF used in the Ki calculation; value inserted in the Cheng equation; tested as the radiolabelled form"}
{"smiles": "CCCCCCCCCCCCCCCCCCOC[C@H](COP(=O)([O-])OCC[N+](C)(C)C)OC(C)=O", "values": [{"measurement": "Kd", "value": 600, "unit": "pM"}]}
